The values below come from patent US7544814B2, “[3.2.0] Heterocyclic compounds and methods of using the same” (Nereus Pharmaceuticals, Inc., priority 2004, dated 2009).

Protein sequences, listed by entry. Tags and fused reporters are not part of them. Residues count along the entry.
UniProt G1T4Q9, 1-263: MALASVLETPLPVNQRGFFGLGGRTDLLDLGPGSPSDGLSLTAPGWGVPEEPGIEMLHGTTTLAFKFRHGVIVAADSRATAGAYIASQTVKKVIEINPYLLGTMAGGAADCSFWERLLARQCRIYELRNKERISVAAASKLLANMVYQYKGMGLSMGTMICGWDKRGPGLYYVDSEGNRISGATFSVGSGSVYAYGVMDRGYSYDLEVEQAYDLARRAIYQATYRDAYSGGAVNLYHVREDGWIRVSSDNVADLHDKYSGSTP

Experiment [1] concerns the target T1, trypsin-like activity of purified rabbit muscle 20S proteasome (Oryctolagus cuniculus, UniProt G1SWK8).
T1 sequence (G1SWK8 1-271): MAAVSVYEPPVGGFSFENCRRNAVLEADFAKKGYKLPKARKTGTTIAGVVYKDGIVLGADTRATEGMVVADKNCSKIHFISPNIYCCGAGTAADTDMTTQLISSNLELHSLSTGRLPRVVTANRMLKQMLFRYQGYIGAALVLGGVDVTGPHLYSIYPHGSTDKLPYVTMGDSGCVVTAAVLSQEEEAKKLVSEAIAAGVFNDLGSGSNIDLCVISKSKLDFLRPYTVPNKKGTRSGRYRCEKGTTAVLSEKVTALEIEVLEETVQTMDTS
Description: biochemical.

Experiment [2] deals with chymotrypsin-like activity of purified rabbit muscle 20S proteasome (Oryctolagus cuniculus, UniProt G1T4Q9). Description: In vitro inhibition of 20S proteasome chymotrypsin-like activity (suc-LLVY-AMC).
Another experiment has as its system U266. Description: Cell growth inhibition (resazurin), U266. To be noted: Homo sapiens, U-266, 48 h, read-out: U266 EC50, Table 2; 48 hours drug exposure. A general note: Resazurin is reduced to fluorescent resorufin, in cell work by metabolically active cells.
In the next experiment the test system is B16-F10. Description: Growth inhibition of B16-F10 in media containing 1% or 10% FBS. Conditions: Mus musculus, B16-F10, read-out: B16-F10, EC50 (nM) mean ± SD; media containing 10% FBS. Type of experiment: cell-based.
Experiment [3] addresses T1, trypsin-like activity of purified rabbit muscle 20S proteasome. Description: In vitro inhibition of 20S proteasome trypsin-like activity (Boc-LRR-AMC). To be noted: read-out: Proteasome Trypsin-like EC50; Table 12.

Molecules are shown by their SMILES. Values joined by “and” are separate entries in the source; they are usually repeats but may differ in a detail not shown here. Equal values may be shown once.

On to `C[C@@]12OC(=O)[C@]1([C@@H](O)[C@@H]1C=CCCC1)NC(=O)[C@H]2CCCl` [Formula II-26], for which the EC50 in experiment [1] was 2000 nM and 3000 nM; in experiment [2] (EC50 Chymotrypsin-like, Table 6, values in nM), 349 nM and 319 nM; in experiment [2] (EC50 values, chymotrypsin-like activity, summary of Table 6) it was 207 to 964 nM; in the experiment with U266, 1300 nM.
As for `C[C@@]12OC(=O)[C@]1([C@@H](O)[C@@H]1C=CCCC1)NC(=O)[C@@H]2CCCl` [Formula II-16], the EC50 with B16-F10 came out at 13 ± 1 nM; in experiment [2] (Proteasome Chymotrypsin-like EC50, Table 12), 2.6 ± 0.2 nM; in experiment [3], 21 ± 2.6 nM.

One may read the EC50 as the concentration needed to bring the measured effect to its halfway point.
